For this assay, the system named is JMAR. Put plainly: MTS viability. The conditions noted are these: Homo sapiens, read-out: Cytotoxicity IC50 JMAR.

Each structure is given as a SMILES string.

Broadly, the IC50 is the concentration that inhibits the measured activity by half.

Regarding `CC1=C(CO)C(=O)O[C@@H]([C@@H](C)[C@H]2CC[C@H]3[C@@H]4C[C@H]5O[C@]56[C@@H](O)C=CC(=O)[C@]6(C)[C@H]4CC[C@]23C)C1` [Withaferin A 6, withaferin A], the 50% inhibitory concentration (IC50) was 1500 ± 230 nM.

The record behind these values is article PMC3762585 (Chemical & pharmaceutical bulletin, 2012).
